From ChEMBL document CHEMBL5058541 (2022)
pIC50: −log10 of the molar value. “And” between values parts separate entries of the source, which are not always exact repeats. Equal entries are not always repeated.

Amino acid sequences for entries named in this document (tags omitted).
UniProt Q96SB4, whole entry: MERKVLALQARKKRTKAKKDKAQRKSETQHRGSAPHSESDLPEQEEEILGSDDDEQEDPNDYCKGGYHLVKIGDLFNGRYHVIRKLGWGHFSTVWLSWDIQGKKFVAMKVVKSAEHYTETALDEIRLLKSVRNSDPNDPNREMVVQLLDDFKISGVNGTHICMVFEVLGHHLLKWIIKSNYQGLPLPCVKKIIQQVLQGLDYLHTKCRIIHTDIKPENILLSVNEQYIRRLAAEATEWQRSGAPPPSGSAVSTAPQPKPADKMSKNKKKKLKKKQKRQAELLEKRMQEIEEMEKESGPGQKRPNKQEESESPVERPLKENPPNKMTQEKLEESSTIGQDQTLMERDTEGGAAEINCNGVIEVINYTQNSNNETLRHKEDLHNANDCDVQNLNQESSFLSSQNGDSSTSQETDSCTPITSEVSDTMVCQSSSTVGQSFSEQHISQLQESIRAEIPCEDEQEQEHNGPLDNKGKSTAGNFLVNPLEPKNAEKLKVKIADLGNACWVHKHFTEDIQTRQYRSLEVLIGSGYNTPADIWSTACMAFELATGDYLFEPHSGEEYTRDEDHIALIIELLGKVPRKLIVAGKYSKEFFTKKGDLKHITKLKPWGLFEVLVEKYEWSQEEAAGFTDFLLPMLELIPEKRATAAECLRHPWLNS
UniProt P78362, whole entry: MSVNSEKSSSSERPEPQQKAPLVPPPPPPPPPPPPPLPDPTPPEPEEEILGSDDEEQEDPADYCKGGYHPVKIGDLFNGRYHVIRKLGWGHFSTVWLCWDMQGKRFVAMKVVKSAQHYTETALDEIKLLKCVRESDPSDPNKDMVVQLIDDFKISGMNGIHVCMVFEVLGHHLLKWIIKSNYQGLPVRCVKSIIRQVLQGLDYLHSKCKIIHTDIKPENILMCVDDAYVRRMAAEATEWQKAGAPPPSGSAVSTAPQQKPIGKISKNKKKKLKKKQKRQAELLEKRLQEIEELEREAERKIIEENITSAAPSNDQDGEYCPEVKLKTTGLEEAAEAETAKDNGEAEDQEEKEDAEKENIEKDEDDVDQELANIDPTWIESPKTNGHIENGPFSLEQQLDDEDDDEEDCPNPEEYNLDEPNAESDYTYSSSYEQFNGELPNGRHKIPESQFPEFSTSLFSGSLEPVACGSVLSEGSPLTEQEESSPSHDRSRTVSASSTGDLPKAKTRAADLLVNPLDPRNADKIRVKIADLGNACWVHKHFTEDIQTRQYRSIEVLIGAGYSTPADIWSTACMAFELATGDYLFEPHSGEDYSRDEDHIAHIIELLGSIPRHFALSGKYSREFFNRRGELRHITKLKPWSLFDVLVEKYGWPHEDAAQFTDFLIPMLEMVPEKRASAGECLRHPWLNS

Tests used:
SRSF protein kinase 1 = SRSF protein kinase 1 (Homo sapiens, UniProt Q96SB4)
SRSF protein kinase 2 = SRSF protein kinase 2 (Homo sapiens, UniProt P78362)

pIC50 (SRSF protein kinase 1): 7.01 and 7.36 | pIC50 (SRSF protein kinase 2): 6.83
SMILES: CN(c1ncccc1CNc1ccnc(-c2nc3c(F)c(Cl)ccc3[nH]2)n1)S(C)(=O)=O
